# Permeability data for macrocyclic peptides

Source: CycPeptMPDB (Li et al. 2023), which took these values from Lee et al. 2018, doi:10.1002/pep2.24063.

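The data file gives no further conditions (lipid, pH, time, direction or concentration), and values from different papers need not be comparable. Other peptides of the study may be missing here. Entries at the database's floor value (log10 P of -10) are not listed.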

PAMPA is the parallel artificial membrane permeability assay, which has no cells and reads passive diffusion.
Permeability is in 10^-6 cm/s, converted from the database's log10 values; higher is more permeable.

The entry for CN1C(=O)[C@H](Cc2ccccc2)NC(=O)[C@H](Cc2ccc(O)cc2)NC(=O)[C@H](CO)NC(=O)[C@H](CC(N)=O)NC(=O)[C@@H]1CCCCN lists PAMPA 6 × 10^-6 cm/s.
The entry for CN1C(=O)[C@H](CCCCN)NC(=O)[C@H](Cc2ccccc2)NC(=O)[C@H](Cc2ccc(O)cc2)NC(=O)[C@H](CO)NC(=O)[C@@H]1CC(N)=O lists PAMPA 5.4 × 10^-6 cm/s.
The entry for CN1C(=O)[C@H](Cc2ccc(O)cc2)NC(=O)[C@H](CO)NC(=O)[C@H](CC(N)=O)NC(=O)[C@H](CCCCN)NC(=O)[C@@H]1Cc1ccccc1 lists PAMPA 5.1 × 10^-6 cm/s.
The entry for CN1C(=O)[C@H](CC(N)=O)NC(=O)[C@H](CCCCN)NC(=O)[C@H](Cc2ccccc2)NC(=O)[C@H](Cc2ccc(O)cc2)NC(=O)[C@@H]1CO lists PAMPA 4.8 × 10^-6 cm/s.
The entry for CN1C(=O)[C@H](CO)NC(=O)[C@H](CC(N)=O)NC(=O)[C@H](CCCCN)NC(=O)[C@H](Cc2ccccc2)NC(=O)[C@@H]1Cc1ccc(O)cc1 lists PAMPA 5.2 × 10^-6 cm/s.